Source: patent US8900194B2, “Microneedle devices and microneedle delivery apparatus” (3M Innovative Properties Company, priority 2002, dated 2014)
Where two headings read alike, the source gives them in different places.

Conditions: 0.100 gm/ml FITC-dextran in water
Protocol: Human cadaver skin was soaked for approximately one hour in 0.025M phosphate buffer solution (PBS) before being cut to size to fit 5 cm^2 Franz cells modified to sit over individual stirrers within an enclosed, temperature-controlled box. The temperature was maintained at 32° C. during the permeation experiment. The receiver cell solution was 0.025M PBS. Impedance measurements were made both before and following microneedle application. Skin samples with a resistivity lower than 10,000 Ω·cm^2 were discarded.
The microneedles were attached to the piston of an impactor of the general design shown in FIG. 7 to 10 and applied to the cadaver skin. The piston velocity was 8 m/sec and the piston mass was 7 gm.
All cells were kept at 32° C. for the duration of the study.
The aspect ratio of the microneedles was approximately 3:1.
Average cumulative flux was determined at 2 hours after application of the solution.

fluorescine isothiocyanate (FITC)-dextran [FITC-Dextran]
FITC-Dextran Cumulative Flux (6 hrs, treated skin (Example 4 microneedles), average of 3): 66.5 μg/cm^2
FITC-Dextran Cumulative Flux (6 hrs, untreated skin (no microneedles)): 6.4 μg/cm^2
FITC-Dextran Cumulative Flux (24 hrs, treated skin (Example 4 microneedles), average of 3): 387 μg/cm^2
FITC-Dextran Cumulative Flux (24 hrs, untreated skin (no microneedles)): 2.2 μg/cm^2
FITC-Dextran Cumulative Flux (48 hrs, treated skin (Example 4 microneedles), average of 3): 823 μg/cm^2
FITC-Dextran Cumulative Flux (48 hrs, untreated skin (no microneedles)): 0.8 μg/cm^2
FITC-Dextran Cumulative Flux (72 hrs, treated skin (Example 4 microneedles), average of 3): 1271 μg/cm^2
FITC-Dextran Cumulative Flux (72 hrs, untreated skin (no microneedles)): 5.0 μg/cm^2
